Measurements reported in PMC10316653 (iScience, 2023).

Target: T1, A2BAR (Homo sapiens, UniProt P29275)
T1 sequence (P29275 1-332): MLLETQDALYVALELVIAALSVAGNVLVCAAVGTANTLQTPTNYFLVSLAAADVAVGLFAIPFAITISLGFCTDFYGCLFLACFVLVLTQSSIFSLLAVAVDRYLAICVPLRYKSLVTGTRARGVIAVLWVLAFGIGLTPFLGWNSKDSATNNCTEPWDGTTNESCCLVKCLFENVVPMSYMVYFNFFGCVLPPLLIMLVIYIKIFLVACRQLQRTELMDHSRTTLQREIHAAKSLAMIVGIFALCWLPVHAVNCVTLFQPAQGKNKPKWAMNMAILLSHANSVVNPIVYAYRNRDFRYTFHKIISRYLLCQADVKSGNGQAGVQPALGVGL
Assay: cAMP accumulation assay in HEK293-A2B cells

IC50: 513 ± 207 nM
Kb: 3.3 nM
Compound: CCCn1c(=O)c2[nH]c(-c3ccc(OCC(=O)Nc4ccc(C#N)cc4)cc3)nc2n(CCC)c1=O [MRS1754]
